Source: patent US20250084409A1, “COMPOSITIONS AND METHODS FOR CAPPING RNAS” (Verve Therapeutics, Inc., priority 2022, published 2025)

By UniProt entry, the sequences of proteins in these tests, tags left out. Where a name states a change or a piece, a line headed by the entry shows the natural chain unless it says otherwise.
UniProt Q06151: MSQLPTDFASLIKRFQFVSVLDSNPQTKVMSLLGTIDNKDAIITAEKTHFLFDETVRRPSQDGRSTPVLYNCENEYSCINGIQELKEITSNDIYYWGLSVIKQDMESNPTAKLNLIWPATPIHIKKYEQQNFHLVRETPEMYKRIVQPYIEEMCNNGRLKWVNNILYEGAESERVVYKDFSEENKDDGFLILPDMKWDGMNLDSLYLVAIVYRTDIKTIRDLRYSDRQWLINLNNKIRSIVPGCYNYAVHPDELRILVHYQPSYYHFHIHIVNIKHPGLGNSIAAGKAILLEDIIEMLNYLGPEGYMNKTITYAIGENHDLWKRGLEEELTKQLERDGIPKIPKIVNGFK

Assays:
[1] = system: ribosomes and initiation factors like eIF4E; type: biochemical; settings: rabbit reticulocyte lysate; inhibition of luciferase signal relative to 1002a; FIG. 16
[2] = system: Primary human hepatocytes; experiment: Luciferase expression in primary human hepatocytes; type: cell-based; settings: 6 hours after transfection, both transfection doses, compared to 1002a
Excerpt: The harvested cell lysate was subjected to conditions to derive a quantifiable fluorescent signal. This signal was then compared to analog 1002a to determine how structural differences may be related to the changes in expression. Primary human hepatocytes were subjected to two different doses of mRNA encoding for the protein luciferase made using the indicated test analogs. A single RNA molecule may be interpreted by protein synthesis machinery multiple times, so an analog that may increase the frequency of interpretation may be desirable as a 5′ initiator. This frequency of interpretation, or translation efficiency, may be determined by measuring the amount of protein produced in a population of cells exposed to a known amount of RNA at a given point following that exposure. The duration of expression may also be assessed to determine how an analog may sustain the observed expression, as the RNA molecule is eventually decayed within the cell thereby destroying its protein-encoding capacity. […] Similar protein expression profiles was also observed at 24 hours post transfection (FIG. 17b).

[3] = target: T1, recombinant yeast pyrophosphatase, DcpS (Saccharomyces cerevisiae, UniProt Q06151); type: biochemical; settings: DcpS with 8-40 μM analog; relative to 1002a; FIG. 15
T1 construct: purchased

SMILES	relative ribosome affinity (ribosome recruitment) [1]	relative luciferase expression [2]	relative pyrophosphatase resistance [3]
COC1C(OP([O-])(=S)OCC2OC(n3cnc4c(=O)[nH]c(N)nc43)C(O)C2O)C(COP(=O)(O)OP(=O)(O)OP(=O)(O)OCC2OC(n3c[n+](C)c4c(=O)[nH]c(N)nc43)C(O)C2O)OC1n1cnc2c(N)ncnc21 (stereo not shown) [1007a, m^7G(ppp) Am(ps)G]	slightly less efficient		
COC1C(O[P@@]([O-])(=S)OCC2OC(n3cnc4c(=O)[nH]c(N)nc43)C(O)C2O)C(COP(=O)(O)OP(=O)(O)OP(=O)(O)OCC2OC(n3c[n+](C)c4c(=O)[nH]c(N)nc43)C(O)C2O)OC1n1cnc2c(N)ncnc21 (stereo partly shown) [1007a_D1, m^7G(ppp) Am(ps)G]	slightly less efficient	most cap analogs except 1007a_D1 showed similar expression	
COC1C(O[P@]([O-])(=S)OCC2OC(n3cnc4c(=O)[nH]c(N)nc43)C(O)C2O)C(COP(=O)(O)OP(=O)(O)OP(=O)(O)OCC2OC(n3c[n+](C)c4c(=O)[nH]c(N)nc43)C(O)C2O)OC1n1cnc2c(N)ncnc21 (stereo partly shown) [1007a_D2, m^7G(ppp) Am(ps)G]	lowest ribosome affinity		most pyrophosphatase resistant
COC1C(OP(=O)(O)OCC2OC(n3cnc4c(=O)[nH]c(N)nc43)C(O)C2O)C(COP(=O)(O)OP(=O)([O-])OP(=O)(O)OCC2OC(n3c[n+](Cc4ccc(Cl)cc4)c4c(=O)[nH]c(N)nc43)C(O)C2O)OC1n1cnc2c(N)ncnc21 (stereo not shown) [compound 5231, 4-Cl-Bn7G(ppp) Am(p)G]	most efficient ribosome recruitment		more stable than 1002a, 1007a and 1007a_D1
